PubChem BioAssay AID504326 (The Scripps Research Institute Molecular Screening Center, 2011)
This is a selection; strong and weak results do not stand in their true shares. Activity calls are given as the source filed them. No stated cut-off is given here; in the data, active means activation above about 18%; inactive means the rest.

The chains behind the UniProt entries cited, without tags or fusion partners.
UniProt P35372, whole entry, looked up: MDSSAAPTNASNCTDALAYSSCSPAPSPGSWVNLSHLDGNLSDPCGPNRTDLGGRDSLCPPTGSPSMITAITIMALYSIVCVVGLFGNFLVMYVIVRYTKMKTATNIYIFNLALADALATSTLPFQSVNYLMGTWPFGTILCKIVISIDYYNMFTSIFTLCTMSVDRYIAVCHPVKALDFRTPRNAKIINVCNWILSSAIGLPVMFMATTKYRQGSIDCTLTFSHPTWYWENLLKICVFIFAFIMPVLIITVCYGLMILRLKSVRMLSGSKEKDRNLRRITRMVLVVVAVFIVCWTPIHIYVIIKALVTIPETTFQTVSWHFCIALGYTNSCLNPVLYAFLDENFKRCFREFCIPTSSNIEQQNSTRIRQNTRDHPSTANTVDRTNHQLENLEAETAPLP
UniProt P41143, whole entry, looked up: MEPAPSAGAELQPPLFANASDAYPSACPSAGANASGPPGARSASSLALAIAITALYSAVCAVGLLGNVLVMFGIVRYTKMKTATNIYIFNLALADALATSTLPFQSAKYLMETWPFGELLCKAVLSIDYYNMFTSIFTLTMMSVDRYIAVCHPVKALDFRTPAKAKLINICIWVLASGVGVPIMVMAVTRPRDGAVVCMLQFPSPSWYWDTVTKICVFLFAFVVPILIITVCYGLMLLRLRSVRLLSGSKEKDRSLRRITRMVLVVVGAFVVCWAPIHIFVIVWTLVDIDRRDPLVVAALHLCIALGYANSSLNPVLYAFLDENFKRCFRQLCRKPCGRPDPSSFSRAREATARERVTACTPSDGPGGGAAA

What follows are molecules tested against Mu-type opioid receptor (Homo sapiens) + Delta-type opioid receptor (Homo sapiens) (UniProt P35372+P41143) (assay: inducers of mu-delta opioid receptor heterodimers – cell-based, luminescence, primary screen (AID 504326;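 further: 0% = vehicle-treated cells and 100% = reference agonist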)). Details: cells, OPRM1-OPRD1 heterodimerization, at 9.3 µM, stronger effect = higher value.
In the case of `O=C(Cn1cnc2c(OCc3ccccc3)ncnc21)NCCc1c[nH]c2ccccc12`, the activation was inactive: -0.68%.
For `Fc1ccc(Cn2nnnc2CN2CCC(n3nnc4cc(C(F)(F)F)ccc43)CC2)cc1`, the activation was inactive: 0.16%.
`CN(C)CCCNC(=S)N1CCn2c(nc3ccccc32)C1` was tested, and the activation was inactive: -2.83%.
In the case of `CC1(CBr)Cn2c(nc3ccccc3c2=O)S1` (stereo unspecified), the activation was inactive: -1.87%.
With `CCC(=O)Nc1ccc2c(c1)nc1n2CCN(C2CCCCC2)C1` the activation was inactive: 0.71%.
With `O=C(Nc1nc2ccccc2n1CCN1CCOCC1)c1ccc(COc2ccccc2Br)o1` the activation was inactive: 0.67%.
`CN(C(=O)Cc1ccc(Cl)c(Cl)c1)[C@@H]1CCCC[C@H]1N1CCCC1` was tested, and the activation was inactive: 1%.
`CC(C)/C=N\N=C(\N)N[N+](=O)[O-]` was tested, and the activation was inactive: 0.24%.
In the case of `COc1ccc(CCNC(=O)CCCCCNC(=O)N2CCn3c2nc2ccccc23)cc1OC`, the activation was inactive: -3.69%.
For `O=C(Cn1c(COc2ccc(Cl)cc2)nc2ccccc21)NCC(F)(F)F`, the activation was inactive: -2.59%.
With `C[C@H](O)[C@@H]1C(=O)N2CCc3ccc(-c4cccc(F)c4)cc3[C@@H]2C[C@@H]1N(C)C(=O)C(C)(C)C` the activation was inactive: 1.18%.
In the case of `CCN(CC)CCn1c(NC(=O)c2ccc(C)cc2)nc2ccccc21`, the activation was inactive: 2.47%.
With `O=C(Cn1c(CO)nc2ccccc21)NCc1ccc2c(c1)OCO2` the activation was inactive: -0.4%.
For `Cc1cccc(N2CCN(C(=O)Cn3cnc4c3c(=O)n(C)c(=O)n4C)CC2)c1C`, the activation was inactive: -2.12%.
`COC(=O)[C@H](CCSC)NC(=O)Cn1cnc2c(OCc3ccccc3)ncnc21` was tested, and the activation was inactive: -0.5%.
With `COc1ccccc1CNC(=O)COC(=O)C(O)(c1ccccc1)c1ccccc1` the activation was inactive: -1.83%.
For `Cn1c(=O)c2c(nc(N3CCCCC3)n2CCNC2=NCCC2)n(C)c1=O`, the activation was inactive: -3.02%.
With `Cc1ccc(NC(=O)C2CC(=O)Nc3nc4ccccc4n32)c(C)c1` (stereo unspecified) the activation was inactive: -1.32%.
For `O=C(CCNC(=O)N1CCn2c1nc1ccccc12)NCc1ccccc1`, the activation was inactive: -2.51%.
In the case of `COc1ccc(N(C(=O)Cn2cnc3ccccc32)C(C(=O)NC2CCCCC2)c2ccccc2)cc1` (stereo unspecified), the activation was inactive: -1.58%.
With `Cc1ccc2c(c1)C1CN(C)CCC1N2C(=O)c1cccc(S(=O)(=O)N2CC(C)CC(C)C2)c1` (stereo unspecified) the activation was inactive: 1.8%.
In the case of `CCN(CC)c1ccc(CNc2nc3ccccc3n2CCN2CCCCC2)cc1`, the activation was active: 42.2%.
With `Cn1c(=O)c2ncn(CC(=O)N/N=C/C=C/c3ccccc3)c2n(C)c1=O` the activation was inactive: -2.59%.
With `COc1ccccc1C(=O)Nc1ccc2c(c1)nc1n2CCN(Cc2ccccc2)C1` the activation was inactive: 1.5%.
`CCN(CC)CCn1c(NCc2ccco2)nc2ccccc21` was tested, and the activation was inactive: -0.73%.
In the case of `CS(=O)(=O)N1CCn2c1nc1ccccc12`, the activation was inactive: -0.11%.
With `Cc1nc2ccccc2n1CC(=O)N/N=C\C=C\c1ccccc1` the activation was inactive: -1.75%.
In the case of `COC(=O)[C@H](Cc1ccccc1)NC(=O)Cn1cnc2c(OCc3ccccc3)ncnc21`, the activation was inactive: -1.69%.
In the case of `COc1cccc(NC(=S)N2CCn3c(nc4ccccc43)C2)c1`, the activation was inactive: -1.01%.
`CC(C)C[C@H](NC(=O)N1CCn2c1nc1ccccc12)C(=O)NCc1ccc2c(c1)OCO2` was tested, and the activation was inactive: -0.59%.
In the case of `Cc1ccc(OCC(O)Cn2c(=N)n(CCN3CCCCC3)c3ccccc32)cc1` (stereo unspecified), the activation was inactive: 0.88%.
`N=c1n(CCN2CCCCC2)c2ccccc2n1CC(O)c1cccc(Br)c1` (stereo unspecified) was tested, and the activation was inactive: 2.69%.
`Cn1c(=O)n(Cc2ccccc2F)c(=O)c2c1nc1n2CCN1Cc1ccco1` was tested, and the activation was inactive: -2.76%.
With `CCc1cccc(NC(=O)Cn2c3[n+](c4ccc(C(F)(F)F)cc42)CCCCC3)c1` the activation was inactive: -2.34%.
With `NC(=O)CC(NC(=O)Cc1ccc(Cl)cc1)c1ccc(NC2CCN(Cc3ccccc3)CC2)c([N+](=O)[O-])c1` (stereo unspecified) the activation was inactive: -1.17%.
In the case of `Clc1n[nH]nc1-c1nn[nH][15n]1`, the activation was inactive: -2.45%.
`COc1ccc(/C=N/NC(=O)Cn2c(Cc3ccc(OC)c(OC)c3)nc3ccccc32)cc1OC` was tested, and the activation was inactive: 2.05%.
In the case of `Cc1ccc(CSc2nc3ccncc3n2CC(=O)Nc2cc(C)cc(C)c2)cc1`, the activation was inactive: 6.14%.
For `NNC(=O)Cn1c(-c2nonc2N)nc2ccccc21`, the activation was inactive: 6.41%.
`COc1ccc(CNC(=O)Cn2cnc3c(SC)nc(N)nc32)cc1` was tested, and the activation was inactive: -2.23%.
`COc1ccc(OCC(O)Cn2c(=N)n(CCN3CCOCC3)c3ccccc32)cc1` (stereo unspecified) was tested, and the activation was inactive: 2%.
In the case of `CN(C)CCn1c(NC(=O)c2ccc(Cl)cc2)nc2ccccc21`, the activation was inactive: -0.73%.
For `O=C(Cn1c(C(F)(F)F)nc2ccccc21)Nc1ccccc1C(=O)O`, the activation was inactive: -2.47%.
`C[C@H](O)[C@@H]1C(=O)N2CCc3ccc(N4CCOCC4)cc3[C@@H]2C[C@@H]1N(C)C(=O)C(C)(C)C` was tested, and the activation was inactive: 0.39%.
In the case of `O=C(NCCn1c(C(F)(F)F)nc2cc(C(F)(F)F)ccc21)[C@H]1CCCN1c1nc(CN2CCCCC2)cs1`, the activation was inactive: -1.73%.
In the case of `Cc1cc(C)cc(NC(=O)Cn2c(-c3ccccc3Cl)nc3ccccc32)c1`, the activation was inactive: 0.5%.
`CC(C)(C)C(=O)NC(Sc1ncccn1)C(Cl)(Cl)Cl` (stereo unspecified) was tested, and the activation was inactive: -0.42%.
In the case of `CCCC(=O)Nc1nnc(/C=C/c2ccccc2)s1`, the activation was inactive: -2%.
With `Cn1c(=O)c2ncn(CC(=O)Nc3cc(C(F)(F)F)ccc3N3CCOCC3)c2n(C)c1=O` the activation was inactive: -2.3%.
In the case of `Cn1c(=O)c2c(ncn2CC(=O)Nc2nnc(Cc3ccccc3)s2)n(C)c1=O`, the activation was inactive: -2.2%.
`Brc1cccc(CNc2nc3ccccc3n2CCN2CCOCC2)c1` was tested, and the activation was inactive: -0.65%.
`Cc1ccc(CNC(=O)CCCCCNC(=O)N2CCn3c2nc2ccccc23)cc1` was tested, and the activation was inactive: -1.08%.
With `S=C(Nc1ccccc1)N1CCn2c(nc3ccccc32)C1` the activation was inactive: -0.4%.
With `CCOCCn1c(=O)c2c(nc3n2CCN3c2ccc(CC)cc2)n(C)c1=O` the activation was inactive: -3.31%.
In the case of `Cc1cc(N2C(=O)CC(N3CCC(n4c(=O)[nH]c5ccccc54)CC3)C2=O)no1` (stereo unspecified), the activation was inactive: -1.54%.
For `CC(C)NC(=O)Cn1c(SCC(=O)N2CCc3ccccc3C2)nc2ccccc21`, the activation was inactive: 1.51%.
